Experimental data reported in paper PMC12205653 (The Journal of Biological Chemistry, 2025).

B1: His6-MBP-CAPNS1 protein without the LgBiT (domain or fragment)
chain: RILGGVISAISEAAAQYNPEPPPPRTHYSNIEANESEEVRQFRRLFAQLAGDDMEVSATELMNILNKVVTRHPDLKTDGFGIDTCRSMVAVMDSDTTGKLGFEEFKYLWNNIKRWQAIYKQFDTDRSGTICSSELPGAFEAAGFHLNEHLYNMIIRRYSDESGNMDFDNFISCLVRLDAMFRAFKSLDKDGTGQIQVNIQEWLQLTMYS
modifications: His6-MBP carrier left out. Limits 60-268 are printed for the CAPNS1 PEF biosensor constructs (Methods, Fig. 2 and Fig. 5I legends) and are assumed to apply to this LgBiT-less competitor. Assay buffer
B2: His6-MBP-SmBiT-CAPN2 (domain or fragment, human, UniProt P17655 524-700, looked up)
chain: DISEDDIDDGFRRLFAQLAGEDAEISAFELQTILRRVLAKRQDIKSDGFSIETCKIMVDMLDSDGSGKLGLKEFYILWTKIQKYQKIYREIDVDRSGTMNSYEMRKALEEAGFKMPCQLHQVIVARFADDQLIIDFDNFVRCLVRLETLFKIFKQLDPENTGTIELDLISWLCFSVL
notes: CAPN2, calpain-2 catalytic subunit, human, penta-EF-hand domain PEF(L), residues 524-700; Cloned in pHT29 (modified pET16b); also called CAPN2 PEF(L) biosensor component; source: E. coli BL21 RIPL; not shown: His6, N-terminal, kept; MBP, N-terminal, kept; SmBiT, N-terminal, kept

Assays:
Conditions in all cases: both partners purified
His6-MBP-SmBiT-CAPN2 = target: B2; assay: split reporter (BiFC, NanoBiT); competition: 25 nM LgBiT-CAPNS1 and 250 nM SmBiT-CAPN2 with increasing concentrations of LgBiT-less CAPNS1
His10-LgBiT-CAPNS1 = target: T1, His10-LgBiT-CAPNS1 (human, UniProt P04632 60-268); assay: split reporter (BiFC, NanoBiT); fixed 100 nM LgBiT-CAPNS1, increasing SmBiT-CAPN1/2, 5 mM Mg2+ in place of Ca2+; estimated KD from the inflection of the plot assuming first-order kinetics
T1 construct: CAPNS1, calpain small regulatory subunit, human, penta-EF-hand domain PEF(S), residues 60-268; Cloned in pET16b; also called CAPNS1 PEF(S) biosensor component; source: E. coli BL21 RIPL; not shown: His10, N-terminal, kept; LgBiT, N-terminal, kept
T1 sequence (looked up): B1 chain

[1] = target: T2, His10-LgBiT-CAPNS1 M224STOP (human, UniProt P04632 60-223); assay: split reporter (BiFC, NanoBiT); purified proteins at 25 nM for each component, 5 mM Ca2+
T2 construct: CAPNS1, human, PEF(S) domain from residue 60 with a stop codon at position M224 (EF5 completely removed); also called CAPNS1 with complete truncation of EF5; source: E. coli, purified; not shown: LgBiT, N-terminal, kept
T2 sequence (looked up): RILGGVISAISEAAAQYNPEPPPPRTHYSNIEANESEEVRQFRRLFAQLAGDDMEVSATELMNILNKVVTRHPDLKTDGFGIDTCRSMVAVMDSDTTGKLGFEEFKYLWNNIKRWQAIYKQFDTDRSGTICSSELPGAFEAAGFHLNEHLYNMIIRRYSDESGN

**Q.** With B1 as the binder, how does the IC50 (His6-MBP-SmBiT-CAPN2) read?
**A.** 0.463 µM

**Q.** Which results are given for B2?
**A.** Kd (His10-LgBiT-CAPNS1): 1.65 µM; PPI strength, percent of WT [1]: 11 % of WT
